According to ChEMBL document CHEMBL5380861, “Design and Synthesis of Orexin 1 Receptor-Selective Agonists” (J Med Chem, 2023):

Key:
Format in all cases: functional, organism-based
Mus musculus [1] = assay: Reinforcing effect on mouse assessed as place preference at 40 mg/kg, sc administered each day by CPP test
Mus musculus [2] = assay: Antinociceptive activity in thermal stimulated sc dosed mouse measured after 30 mins by tail flick test; settings: dose 20-60 mg/kg
Mus musculus [3] = assay: Reinforcing effect on OX1R knock out mouse assessed as place preference at 40 mg/kg, sc administered each day by CPP test
Mus musculus [4] = assay: Antinociceptive activity in thermal stimulated OX1R-knockout mouse at 60 mg/kg, sc measured after 30 mins by tail flick test

Row | SMILES | Activity (Mus musculus [1]) | Activity (Mus musculus [2]) | Activity (Mus musculus [3]) | Activity (Mus musculus [4])
1 | COc1cccc(CC(=O)N(C)[C@@H]2CCCc3ccc(NS(=O)(=O)c4cc(-c5cccc(C(=O)N(C)C)c5)ccc4OC)cc32)c1 | Active |  |  | 
2 | COc1cccc(CC(=O)N(C)[C@@H]2CCCc3ccc(NS(=O)(=O)c4cc(/C=C/C(=O)Nc5ccncc5)ccc4OC)cc32)c1 | Active | Dose-Dependent Effect | inactive | inactive
3 | COc1cccc(CC(=O)N(C)[C@H]2CCCc3ccc(NS(=O)(=O)c4cc(-c5cccc(C(=O)N(C)C)c5)ccc4OC)cc32)c1 | inactive |  |  | 

Calls of active or inactive are those of the source. The calls are words filed in the database; no cut-off is given here.
